According to PubChem BioAssay AID2112 (National Center for Advancing Translational Sciences (NCATS), 2009):
The list shows a part of the results, in another mix than the full data. Activity calls are given as the source filed them. Calls follow the shape of the dose curve; as a rule, active = well fitted inhibition curve with a large enough effect; inconclusive = small, poorly fitted or top-dose-only effect, or effect the other way, or another doubt; inactive = no such curve, though single readings can be large or run the other way.
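Also: 0% = enzyme with vehicle and -100% = no enzyme basal signal.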

These compounds were tested against Lysosomal alpha-glucosidase (Homo sapiens) (UniProt P10253) (assay: qHTS Assay for Inhibitors and Activators of Human alpha-Glucosidase From Spleen Homogenate). Conditions: 4-MU-alpha-glucoside fluorescence; at 79.9 µM (top of the series) unless noted.
Source text: NIH Chemical Genomics Center [NCGC] NIH Molecular Libraries Probe Production Centers Network [MLPCN] MLPCN Grant: R03 MH084841-01 Assay Submitter (PI): Wei Zheng NCGC Assay Overview: Alpha-glucosidase is responsible for the hydrolysis of terminal, non-reducing 1,4-linked alpha-D-glucose residues, which releases alpha-D-glucose. It is a lysosomal hydrolase that is required for the degradation of a small percentage (1-3%) of cellular glycogen in humans. Deficiency of this enzyme results in glycogen-storage disease type II (GSDII), also referred to as Pompe disease, an autosomal recessive disorder. Structurally normal glycogen is accumulated in the lysosomes and cytoplasm in affected patients, primarily in muscle tissues. Excessive glycogen storage within lysosomes may interrupt normal functioning of other organelles and leads to cellular injury. In turn, this leads to enlargement and dysfunction of the entire organ involved (eg: cardiomyopathy and muscle weakness). It has been reported that the improper folding and trafficking of alpha-glucosidase resulting from genetic mutations may account for a significant number of Pompe patients. […] We optimized this alpha-glucosidase assay in 1536-well plate format for identification of novel small molecule inhibitors or activators with structures other than the sugar analogs in order to develop new pharmacological chaperones. In particular, this assay is directed towards discovering compounds active in a more natural setting, tissue homogenate, that may have been missed by screens of the purified enzyme under more stringent conditions.
NCGC Assay Protocol Summary: This is a fluorogenic enzyme assay with 4-methylumbelliferyl-alpha-D-glucopyranoside as the substrate and human spleen homogenate containing alpha-glucosidase as the enzyme preparation. Upon hydrolysis of this fluorogenic substrate, the resulting product, 4-methylumbelliferone (which excites at 365 nm and emits at 440 nm) can be detected by a fluorescence plate reader. Data were normalized to the controls for basal activity (without enzyme) and 100% activity (with enzyme). The AC50 values were determined from concentration-response data modeled with the standard Hill equation. Assay buffer: 50 mM citric acid (titrated with potassium phosphate to pH 5.0), 0.01% Tween-20 (pH 5.0 is an optimal condition for this enzyme assay) 1536-well assay protocol for the alpha-glucosidase from human spleen homogenate: (1) Add 2 ul/well spleen homogenate (1 ug) (2) Add 23 nL compounds in DMSO solution. The final titration was 0.5 nM to 58 uM. (3) Add 2 ul of substrate (1 mM final) (4) Incubate at 37 C for 40 min (5) Add 2 ul stop solution (1M NaOH and 1M Glycine mixture, pH 10) (6) Detect the assay plate in a ViewLux plate reader (PerkinElmer) with Ex=365 nm and Em=440nm. Keywords: Alpha-glucosidase, Pompe Disease, pharmacological chaperone, chaperone therapy, high throughput screening, alpha-glucosidase inhibitor, MLSMR, MLSCN, NIH Roadmap, qHTS and NCGC
For `CP(=O)(Nc1cccc(Br)c1)Oc1ccccc1` (stereo not given), the activity change, negative = inhibition was inactive: 18.1%. With `Cc1cc(C)cc(OP(C)(=O)Nc2ccccn2)c1` (stereo not given) the activity change, negative = inhibition was inactive: -1.23%. For `Cc1ccc(C)c(NP(C)(=O)Oc2ccccc2)c1` (stereo not given), the activity change, negative = inhibition was inactive: -0.575%. `Cc1cc(C)cc(OP(C)(=O)Nc2ccc(C)cc2C)c1` (stereo not given) was tested, and the activity change, negative = inhibition was inactive: -6.5%. In the case of `CCOC(=O)c1ccc(NP(C)(=O)Oc2cc(C)cc(C)c2)cc1` (stereo not given), the activity change, negative = inhibition is reported as inactive: -6.5%. In the case of `COc1ccccc1OP(C)(=O)Nc1cccc(Br)c1` (stereo not given), the activity change, negative = inhibition is reported as inactive: -2.88%. For `O=[N+]([O-])OCC(CO[N+](=O)[O-])(CO[N+](=O)[O-])CO[N+](=O)[O-]`, the activity change, negative = inhibition was inactive: -5.12%. In the case of `Cc1ccc([N+](=O)[O-])cc1[N+](=O)[O-]`, the activity change, negative = inhibition is reported as inactive: 4.39%. For `CC1=NCCc2c1[nH]c1ccccc21.O=[N+]([O-])c1cc([N+](=O)[O-])c(O)c([N+](=O)[O-])c1`, the activity change, negative = inhibition was inactive: -7.55%. With `O=[N+]([O-])c1cccc([N+](=O)[O-])c1` the activity change, negative = inhibition was inactive: 8.61%. For `COc1ccccc1OP(C)(=O)Nc1cc(Cl)ccc1C` (stereo not given), the activity change, negative = inhibition was inactive: 3.61%. In the case of `COc1ccc(OP(C)(=O)Nc2cccc(F)c2)cc1` (stereo not given), the activity change, negative = inhibition is reported as inactive: -6.42%. `Cc1cc(C)cc(OP(C)(N)=O)c1` (stereo not given) was tested, and the activity change, negative = inhibition was inactive: 11.3%. `CCOC(=O)c1ccc(NP(C)(=O)Oc2ccccc2)cc1` (stereo not given) was tested, and the activity change, negative = inhibition was inactive: -2.91%. In the case of `COc1ccccc1OP(C)(=O)Nc1ccc(C)cc1` (stereo not given), the activity change, negative = inhibition is reported as inactive: -5%. With `Cc1ccc(NP(C)(=O)Oc2ccccc2)c(C)c1` (stereo not given) the activity change, negative = inhibition was inactive: 0.407%. With `CC(C)(C)c1ccc(OP(C)(=O)Nc2ccc(SC(F)(F)F)cc2)cc1` (stereo not given) the activity change, negative = inhibition was inactive: -5.18%. In the case of `O=C(O)C(O)(c1ccccc1)c1ccccc1`, the activity change, negative = inhibition is reported as inactive: -0.393%. In the case of `Cc1cccc(C)c1OP(C)(N)=O` (stereo not given), the activity change, negative = inhibition is reported as inactive: -4.2%. For `O=[N+]([O-])c1ccc2c(c1)C=Nc1ccccc1O2`, the activity change, negative = inhibition was inactive: -2.89%. `O=C(O)C1(O)c2ccccc2-c2ccccc21` was tested, and the activity change, negative = inhibition was inactive: 1.62%. With `O=[N+]([O-])[O-].[NH4+]` the activity change, negative = inhibition was inactive: -1.89%. For `CCN(CC)CCCOC(=O)C(O)(c1ccccc1)c1ccccc1`, the activity change, negative = inhibition was inactive: 8.13%. With `CP(=O)(Nc1ccccn1)Oc1ccc(Cl)cc1` (stereo not given) the activity change, negative = inhibition was inactive: -7.37%. For `CCOP(C)(=S)SCC(=O)NC(C)C(=O)O` (stereo not given), the activity change, negative = inhibition was inactive: 7.53%. With `CCOC(=O)c1ccc(NP(C)(=O)Oc2ccc(OC)cc2)cc1` (stereo not given) the activity change, negative = inhibition was inactive: -10.5%. In the case of `CCc1ccc(OP(C)(=O)N2CCN(c3ccc([N+](=O)[O-])cc3)CC2)cc1` (stereo not given), the activity change, negative = inhibition is reported as inactive: 7.82%. In the case of `CP(=O)(NC(=O)Nc1ccccc1)Oc1ccccc1` (stereo not given), the activity change, negative = inhibition is reported as inactive: -5.9%. For `Cc1cc(C)cc(OP(C)(=O)Nc2ccc(SC(F)(F)F)cc2)c1` (stereo not given), the activity change, negative = inhibition was inactive: -0.0424%. `Cc1cccc(C)c1OP(C)(=O)Nc1ccc(SC(F)(F)F)cc1` (stereo not given) was tested, and the activity change, negative = inhibition was inactive: -17.2%. For `CP(=O)(Nc1ccc(SC(F)(F)F)cc1)Oc1ccc(Cl)cc1` (stereo not given), the activity change, negative = inhibition was inactive: 3.27%. With `CP(=O)(Oc1ccccc1)OC(c1ccccc1)C(F)(F)F` (stereo not given) the activity change, negative = inhibition was inactive: -0.274%. `COc1ccccc1OP(C)(=O)Nc1ccccc1` (stereo not given) was tested, and the activity change, negative = inhibition was inactive: -1.65%. With `CP(=O)(Nc1ccccc1Br)Oc1ccccc1` (stereo not given) the activity change, negative = inhibition was inactive: 1.98%. `CP(=S)(Nn1cnnc1)Oc1ccccc1` (stereo not given) was tested, and the activity change, negative = inhibition was inactive: -7.71%.
